## Cyclic peptide permeability, from CycPeptMPDB

PAMPA measures passive passage through an artificial lipid membrane.
Permeability is given as log10 of P in cm/s; higher (less negative) is more permeable.

For CC(C)C[C@@H]1NC(=O)[C@@H]2CCCN2C(=O)CN(Cc2ccccc2)C(=O)[C@@H](CC(C)C)N(C)C(=O)C[C@H](Cc2ccccc2)NC(=O)[C@H]2CCCN2C(=O)[C@H](Cc2ccccc2)NC1=O the data give PAMPA -5.79 (log10 cm/s). The entry for CC(C)C[C@@H]1C(=O)N[C@H](CC(C)C)C(=O)N2CCC[C@@H]2C(=O)N(C)[C@@H](CC(C)C)C(=O)N[C@@H](Cc2ccccc2)C(=O)N2CCC[C@@H]2C(=O)N(C)[C@@H](C)C(=O)N1C lists PAMPA -5.52 (log10 cm/s). CC(C)C[C@@H]1NC(=O)C[C@H](Cc2ccccc2)NC(=O)[C@@H]2CCCN2C(=O)[C@H](Cc2ccccc2)NC(=O)[C@H](CC(C)C)NC(=O)[C@@H]2CCCN2C(=O)C[C@H](Cc2ccccc2)NC1=O has PAMPA -5.82 (log10 cm/s). CC(C)C[C@@H]1NC(=O)[C@@H](CC(C)C)N(C)C(=O)C[C@H](Cc2ccccc2)NC(=O)[C@H](Cc2ccccc2)NC(=O)[C@@H](CC(C)C)NC(=O)[C@H]2CCCN2C1=O is reported with PAMPA -5.17 (log10 cm/s). Listed for CC(C)C[C@@H]1C(=O)N[C@@H](Cc2ccccc2)CC(=O)N2CCC[C@H]2C(=O)N(C)[C@@H](CC(C)C)C(=O)N[C@@H](Cc2ccccc2)C(=O)N2CCC[C@H]2C(=O)N[C@@H](C)C(=O)N1C: PAMPA -5.65 (log10 cm/s).

CC(C)C[C@@H]1C(=O)N[C@@H](Cc2ccccc2)C(=O)N2CCC[C@@H]2C(=O)N[C@H](C)C(=O)N(C)[C@H](CC(C)C)C(=O)N(Cc2ccccc2)CC(=O)N2CCC[C@@H]2C(=O)N1C has PAMPA -5.78 (log10 cm/s). CC(C)C[C@@H]1NC(=O)[C@@H](CC(C)C)NC(=O)[C@@H](C)N(C)C(=O)[C@@H]2CCCN2C(=O)[C@H](Cc2ccccc2)NC(=O)CN(Cc2ccccc2)C(=O)[C@@H]2CCCN2C1=O is reported with PAMPA -6.16 (log10 cm/s). Listed for CC(C)C[C@@H]1NC(=O)[C@H]2CCCN2C(=O)[C@H](CC(C)C)NC(=O)[C@@H](CC(C)C)NC(=O)[C@@H](C)N(C)C(=O)[C@H](Cc2ccccc2)NC1=O: PAMPA -6.12 (log10 cm/s). The entry for CC(C)C[C@@H]1NC(=O)[C@@H](CC(C)C)N(C)C(=O)[C@H](C)NC(=O)[C@@H]2CCCN2C(=O)[C@H](Cc2ccccc2)NC(=O)[C@@H](CC(C)C)N(C)C(=O)[C@@H]2CCCN2C1=O lists PAMPA -5.63 (log10 cm/s). CC(C)C[C@@H]1NC(=O)[C@H](C)N(C)C(=O)[C@H](Cc2ccccc2)NC(=O)[C@H](CC(C)C)N(C)C(=O)[C@@H]2CCCN2C(=O)CN(Cc2ccccc2)C1=O has PAMPA -5.15 (log10 cm/s).

CCCN1CC(=O)N(C)[C@H](CC(C)C)C(=O)N[C@@H](CC(C)C)C(=O)N2CCC[C@@H]2C(=O)N(C)[C@@H](CC(C)C)C(=O)N[C@@H](Cc2ccccc2)C(=O)N2CCC[C@@H]2C1=O is reported with PAMPA -5.00 (log10 cm/s). CC(C)C[C@@H]1NC(=O)[C@@H]2CCCN2C(=O)CN(Cc2ccccc2)C(=O)[C@@H](CC(C)C)NC(=O)[C@H](C)N(C)C(=O)[C@H](Cc2ccccc2)NC1=O is reported with PAMPA -5.44 (log10 cm/s). CC(C)C[C@@H]1NC(=O)[C@H](CC(C)C)N(C)C(=O)[C@H](C)N(C)C(=O)[C@@H]2CCCN2C(=O)[C@H](Cc2ccccc2)NC(=O)[C@@H](CC(C)C)N(C)C(=O)[C@H]2CCCN2C1=O is reported with PAMPA -5.51 (log10 cm/s). CC(C)C[C@@H]1C(=O)N(C)[C@H](CC(C)C)C(=O)N2CCC[C@H]2C(=O)N(Cc2ccccc2)CC(=O)N[C@@H](Cc2ccccc2)C(=O)N[C@@H](C)C(=O)N1C is reported with PAMPA -5.35 (log10 cm/s). CC(C)C[C@@H]1NC(=O)[C@H]2CCCN2C(=O)[C@@H](CC(C)C)N(C)C(=O)[C@H](CC(C)C)NC(=O)[C@@H](C)N(C)C(=O)[C@H](Cc2ccccc2)NC1=O is reported with PAMPA -5.41 (log10 cm/s).

CC(C)C[C@@H]1C(=O)N[C@@H](Cc2ccccc2)C(=O)N2CCC[C@H]2C(=O)N[C@@H](C)C(=O)N(Cc2ccccc2)CC(=O)N[C@@H](Cc2ccccc2)CC(=O)N2CCC[C@@H]2C(=O)N1C is reported with PAMPA -5.15 (log10 cm/s). For CC(C)C[C@@H]1C(=O)N[C@@H](Cc2ccccc2)C(=O)N(C)[C@@H](C)C(=O)N[C@H](CC(C)C)C(=O)N[C@@H](Cc2ccccc2)CC(=O)N2CCC[C@@H]2C(=O)N1C the data give PAMPA -5.53 (log10 cm/s). Listed for CC(C)C[C@H]1C(=O)N(C)[C@@H](CC(C)C)C(=O)N2CCC[C@@H]2C(=O)N(Cc2ccccc2)CC(=O)N[C@@H](Cc2ccccc2)C(=O)N2CCC[C@@H]2C(=O)N(C)[C@H](C)C(=O)N1C: PAMPA -5.71 (log10 cm/s). CC(C)C[C@H]1NC(=O)[C@H](C)NC(=O)[C@H](Cc2ccccc2)NC(=O)[C@@H](CC(C)C)NC(=O)[C@@H]2CCCN2C(=O)[C@@H](CC(C)C)NC1=O has PAMPA -6.39 (log10 cm/s). CC(C)C[C@H]1NC(=O)[C@@H]2CCCN2C(=O)[C@H](CC(C)C)N(C)C(=O)[C@@H](CC(C)C)NC(=O)[C@H](C)N(C)C(=O)[C@H](Cc2ccccc2)NC1=O is reported with PAMPA -5.12 (log10 cm/s).

The entry for CCCN1CC(=O)N(C)[C@H](CC(C)C)C(=O)N[C@@H](CC(C)C)C(=O)N2CCC[C@H]2C(=O)N(C)[C@H](CC(C)C)C(=O)N[C@@H](Cc2ccccc2)C(=O)N2CCC[C@H]2C1=O lists PAMPA -5.30 (log10 cm/s). CC(C)C[C@@H]1NC(=O)[C@H](C)NC(=O)[C@H]2CCCN2C(=O)[C@H](Cc2ccccc2)NC(=O)[C@H](CC(C)C)N(C)C(=O)[C@H]2CCCN2C(=O)[C@H](CC(C)C)N(C)C1=O has PAMPA -5.57 (log10 cm/s). CC(C)C[C@@H]1NC(=O)[C@@H](C)N(C)C(=O)[C@H]2CCCN2C(=O)[C@H](Cc2ccccc2)NC(=O)[C@H](CC(C)C)N(C)C(=O)[C@@H]2CCCN2C(=O)[C@@H](CC(C)C)NC1=O has PAMPA -5.38 (log10 cm/s). CC(C)C[C@@H]1NC(=O)[C@@H]2CCCN2C(=O)[C@H](CC(C)C)N(C)C(=O)[C@@H](CC(C)C)NC(=O)[C@H](C)N(C)C(=O)[C@@H]2CCCN2C(=O)[C@H](Cc2ccccc2)NC1=O is reported with PAMPA -6.77 (log10 cm/s).

The 2 highest values of PAMPA among the entries above:

| SMILES | PAMPA (log10 cm/s) |
|---|---|
| CCCN1CC(=O)N(C)[C@H](CC(C)C)C(=O)N[C@@H](CC(C)C)C(=O)N2CCC[C@@H]2C(=O)N(C)[C@@H](CC(C)C)C(=O)N[C@@H](Cc2ccccc2)C(=O)N2CCC[C@@H]2C1=O | -5.00 |
| CC(C)C[C@H]1NC(=O)[C@@H]2CCCN2C(=O)[C@H](CC(C)C)N(C)C(=O)[C@@H](CC(C)C)NC(=O)[C@H](C)N(C)C(=O)[C@H](Cc2ccccc2)NC1=O | -5.12 |

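Conditions beyond the assay type are not listed; see the original paper. The list need not hold all peptides of the study. Entries at the database's floor value (log10 P of -10) are not listed.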

Collected by the curators of CycPeptMPDB (Li et al. 2023) from Townsend et al. 2020, doi:10.26434/chemrxiv.13335941.v1.